Experimental data: US9682965B2, “Fumagillol heterocyclic compounds and methods of making and using same” (Zafgen, Inc., priority 2015, dated 2017)
Counter-ions that a name gives are not always drawn.

Tested on: pregnant Sprague Dawley rats (embryo/fetal development)
Conditions: in vivo
From the text: Study Summary Rat Embryofetal:
The objective of this study design was to evaluate the potential effects of disclosed compounds on embryo/fetal development when given subcutaneously to pregnant rats once every three days during the critical period of organogenesis (Gestation Days 6-18). Female, Sprague Dawley rats, approximately 10 weeks of age, time bred, were ordered from a certified vendor and housed individually housed in stainless steel cages suspended over flush pans, on a 12-hour light-dark cycle (0700-1900) at 20-26° C. and 30-70% humidity. Rats were fed a standard rodent chow and provided water ad libitum. […]
Compounds were formulated using 100% DMSO mixed in Sterile Water for Injection, resulting in 2% DMSO solution in water. […] Body weights was recorded for all animals on Gestation Days 5 (purpose of randomization), 6, 9, 12, 15, 18, and 20 (scheduled euthanasia). Food consumption by weight was recorded on Gestation Days 6, 9, 12, 15, 18, and 20 (scheduled termination).
At necropsy, the dams were examined visually for external abnormalities including palpable masses. The abdominal, thoracic, and cranial cavities and their contents were examined for abnormalities and findings will be recorded. […] For dead fetuses and late resorptions, crown-to-rump length and weight were recorded, if possible, and the fetus was discarded. […]

| SMILES | Rat Embryofetal @6 mpk |
| --- | --- |
| CO[C@@H]1[C@H](OC(=O)N2CC(OC(=O)N3CCOCC3)C2)CC[C@]2(CO2)[C@H]1[C@@]1(C)O[C@@H]1CC=C(C)C [Example 71, 1-(((3R,4S,5S,6R)-5-methoxy-4-((2R,3R)-2-methyl-3-(3-methylbut-2-enyl)oxiran-2-yl)-1-oxaspiro[2.5]octan-6-yloxy)carbonyl)azetidin-3-yl morpholine-4-carboxylate formate] | Negative |
| CO[C@@H]1[C@H](OC(=O)N2CC(CCC3CCN(CC(F)F)CC3)C2)CC[C@]2(CO2)[C@H]1[C@@]1(C)O[C@@H]1CC=C(C)C [Example 91, (3R,4S,5S,6R)-5-methoxy-4-((2R,3R)-2-methyl-3-(3-methylbut-2-enyl)oxiran-2-yl)-1-oxaspiro[2.5]octan-6-yl 3-(2-(1-(2,2-difluoroethyl)piperidin-4-yl)ethyl)azetidine-1-carboxylate formate] | Positive |
